Columns and labels:
[1] = molecular target: T1, ITK (Homo sapiens, UniProt Q08881); settings: Biochemical
[2] = molecular target: T1, ITK; assay: biochemical

The chains behind the UniProt entries cited, without tags or fusion partners.
UniProt Q08881, whole entry, species assumed: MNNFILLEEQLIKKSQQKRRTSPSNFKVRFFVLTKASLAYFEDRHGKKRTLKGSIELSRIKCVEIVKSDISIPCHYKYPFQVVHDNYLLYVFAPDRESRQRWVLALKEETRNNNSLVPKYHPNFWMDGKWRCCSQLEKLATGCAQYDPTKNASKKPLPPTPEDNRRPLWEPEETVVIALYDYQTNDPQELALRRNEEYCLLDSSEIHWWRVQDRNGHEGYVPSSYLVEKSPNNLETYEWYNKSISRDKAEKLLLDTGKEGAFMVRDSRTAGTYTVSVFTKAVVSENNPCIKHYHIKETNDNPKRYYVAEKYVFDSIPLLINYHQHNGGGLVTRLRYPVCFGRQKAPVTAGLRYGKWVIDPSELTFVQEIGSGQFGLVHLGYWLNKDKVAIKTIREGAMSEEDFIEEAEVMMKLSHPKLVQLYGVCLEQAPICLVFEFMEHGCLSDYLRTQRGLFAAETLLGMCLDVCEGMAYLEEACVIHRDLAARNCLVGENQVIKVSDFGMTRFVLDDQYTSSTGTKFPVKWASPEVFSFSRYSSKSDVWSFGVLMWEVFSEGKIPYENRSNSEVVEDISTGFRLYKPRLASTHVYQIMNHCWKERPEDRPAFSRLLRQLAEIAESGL

Structure (SMILES): Cc1cc(C(=O)Nc2nc3cccc(Cl)c3n2[C@@H]2CCCCN(C(=O)/C=C/CN(C)C)C2)ccn1 [Compound A, (R,E)-N-(7-chloro-1-(1-(4-(dimethylamino)but-2-enoyl)azepan-3-yl)-1Hbenzo[d]imidazol-2-yl)-2-methylisonicotinamide]
- IC50, ITK [1]: single digit nM
- IC50 [2]: 1.3 nM

From patent US20180177872A1, “Combination of PD-1 antagonist with an EGFR inhibitor” (priority 2015, published 2018)
